Experimental data taken from patent US9840464B2, “IAP binding compounds” (TetraLogic Birinapant UK Ltd., priority 2004, dated 2017).

Sequences of proteins named here, by UniProt entry; tags and fusion partners are left off. Residues count along the entry.
UniProt P98170, 241-356 limits assumed: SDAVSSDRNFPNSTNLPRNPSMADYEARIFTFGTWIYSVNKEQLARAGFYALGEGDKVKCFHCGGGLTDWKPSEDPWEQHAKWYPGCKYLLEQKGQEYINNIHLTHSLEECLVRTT

The compounds below were run against XIAP-BIR3 (Homo sapiens, UniProt P98170) (assay: XIAP BIR3 fluorescence polarization binding assay (competition with AbuRPF-K(5-Fam)-NH2)). Details: read-out: KD Range; 5 nM AbuRPF-K(5-Fam)-NH2, 40 nM XIAP-BIR3, pH 7.5; Kd calculated from measured IC50.
Procedure: Binding constants (Kd) were measured using fluorescence polarization as described by Zaneta Nikolovska-Coleska, Renxiao Wang, Xueliang Fang, Hongguang Pan, York Tomita, Peng Li, Peter P. Roller, Krzysztof Krajewski, Naoyuki Saito, Jeanne Stuckey and Shaomeng Wang, in “Development and Optimization of a Binding Assay for the XIAP BIR3 Domain Using Fluorescence Polarization”, Analytical Biochemistry 2004, 332, 261-273). Briefly, test IAP binding compounds at various concentrations for binding measurements were mixed with 5 nM fluorescently labeled peptide (AbuRPF-K(5-Fam)-NH2) and 40 nM of XIAP-BIR3 for 15 minutes at room temperature in 100 μL of 0.1M Potassium Phosphate buffer, pH 7.5 containing 100 μg/ml bovine γ-globulin. Following incubation, the polarization values (mP) were measured on a Victor^2V using a 485 nm excitation filter and a 520 nm emission filter. IC50 values were determined from the plot using nonlinear least-squares analysis using GraphPad Prism. The Kd values of competitive inhibitors were calculated using the equation described by Zaneta Nikolovska-Coleska et al. based upon the measured IC50 values, the Kd value of the probe and XIAP BIR3 complex, and the concentrations of the protein and probe in the competition assay. In various examples of IAP binding or IAP binding cargo molecules ranges for Kd values: Group A: Kd<0.1 μM; Group B: Kd=0.1-1 μM; Group C: Kd=1-10 μM; Group D: Kd>10 μM.

Row | SMILES | Kd [nM]
1 | CC(C)[C@H](NC(=O)[C@@H]1CN1)C(=O)N1CCC[C@H]1Cc1coc2ccccc12 | > 10000
2 | CC(C)[C@H](NC(=O)[C@H](C)N)C(=O)N1CCC[C@H]1COc1cccc2c1CCCC2 | 100 to 1000
3 | C#CCN[C@@H](C)C(=O)N[C@H](C(=O)N1CCC[C@H]1Cc1coc2ccccc12)C(C)C | > 10000
4 | CN[C@@H](C)C(=O)N[C@H](C(=O)N1CCC[C@H]1Cc1coc2ccc(F)cc12)C(C)C | < 100
5 | CC(C)N[C@@H](C)C(=O)N[C@H](C(=O)N1CCC[C@H]1Cc1coc2ccccc12)C(C)C | 1000 to 10000
6 | CC(C)[C@H](NC(=O)[C@H](C)N)C(=O)N1CCC[C@H]1Cc1coc2ccc(OCc3ccccc3)cc12 | 100 to 1000
7 | CC(C)[C@H](NC(=O)[C@H](C)N)C(=O)N1C[C@@H](Oc2ccccc2)C[C@H]1CCCOc1ccccc1-c1ccccc1 | 100 to 1000
8 | CC(C)[C@H](NC(=O)[C@H](C)N)C(=O)N1C[C@@H](Oc2ccccc2)C[C@H]1/C=C/COc1ccccc1C1CCCC1 | 1000 to 10000
9 | CN[C@@H](C)C(=O)N[C@H](C(=O)N1CCC[C@H]1Cc1coc2ccc(C)cc12)C(C)C | < 100
10 | CC(C)[C@H](NC(=O)[C@@H]1CCN1)C(=O)N1CCC[C@H]1Cc1coc2ccccc12 | 100 to 1000
11 | CC(C)[C@H](NC(=O)[C@H](C)N)C(=O)N1CCC[C@H]1Cc1c(-c2ccccc2)oc2ccccc12 | 100 to 1000
12 | CN[C@@H](C)C(=O)N[C@H](C(=O)N1CCC[C@H]1Cc1c[nH]c2c(OCc3ccccc3)cccc12)C(C)C | 1000 to 10000
